Reference: US20250136607A1 (REGOR PHARMACEUTICALS, INC., priority 2021, published 2025)

By UniProt entry, the sequences of proteins in these tests, tags left out.
UniProt Q9UM07, whole entry: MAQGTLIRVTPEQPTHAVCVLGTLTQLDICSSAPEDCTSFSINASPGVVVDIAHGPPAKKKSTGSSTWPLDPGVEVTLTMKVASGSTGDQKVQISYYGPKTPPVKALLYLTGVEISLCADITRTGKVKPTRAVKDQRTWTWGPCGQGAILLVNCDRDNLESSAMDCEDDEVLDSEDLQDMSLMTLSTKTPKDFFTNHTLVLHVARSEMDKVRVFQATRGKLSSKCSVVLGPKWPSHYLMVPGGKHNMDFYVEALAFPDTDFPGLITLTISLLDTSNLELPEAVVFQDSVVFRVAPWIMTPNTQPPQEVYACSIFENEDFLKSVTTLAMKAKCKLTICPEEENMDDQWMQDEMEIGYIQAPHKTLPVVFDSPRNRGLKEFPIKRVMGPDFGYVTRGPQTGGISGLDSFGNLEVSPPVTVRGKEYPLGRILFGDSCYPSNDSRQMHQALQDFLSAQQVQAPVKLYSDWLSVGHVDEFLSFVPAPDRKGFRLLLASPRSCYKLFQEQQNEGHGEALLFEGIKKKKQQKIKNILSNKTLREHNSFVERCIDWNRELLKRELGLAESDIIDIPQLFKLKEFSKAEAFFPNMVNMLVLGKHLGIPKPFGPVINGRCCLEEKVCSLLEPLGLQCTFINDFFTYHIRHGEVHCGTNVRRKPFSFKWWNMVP

Biological target: Protein arginine deiminase 4 (PAD4) (Homo sapiens, UniProt Q9UM07)
Assay: PAD4 ammonia release assay
Conditions: read-out: Average IC50 Abs, BAEE substrate, 60 min at RT
Experimental: 1) Compound preparation: The compounds were diluted to 80× final concentrations. 2) The compounds were transferred to a 384-well assay plate by Tecan. DMSO: 1.25%. 3) Preparation of 1×Assay buffer: 100 mM HEPES, PH=8.0, 2 mM CaCl2, 50 mM NaCl, 0.1 mM TCEP, 0.6 mg/ml BSA. 4) 2× enzyme working solution (PAD4:20 nM) was prepared with assay buffer, and 10 μL of the obtained working solution were added to the 384-well assay plates. 5) The plate was centrifuged at 1000 rpm for 1 min. 6) After the centrifuge, the plate was incubated at RT for 15 min. 7) 2×BAEE substrate mix (600 μM) was prepared with assay buffer and 10 μL of the obtained substrate mix were added to each well. 8) The plate was centrifuged at 1000 rpm for 1 min and then incubated at RT for 60 min. 9) 1.5× detection mix (DTT:4 mM, OPA:3 mM, EDTA: 30 mM) was prepared, and 10 μL of the mix were added to the plate. 10) The plate was centrifuged at 1000 rpm for 1 min and then incubated at RT for 120 min. 11) The 384-well plates were placed into the Envision (PerkinElmer) and the assay data were collected.
The percent (%) inhibition at each concentration of compound was calculated based on and relative to the signal in the HPE (50 μM ref. compound) and ZPE (1.25% DMSO) wells included within each assay plate. […] The endpoint value (IC50) for the reference compound was evaluated in each experiment as a quality control measure. […]

COc1cc(C(=O)N2C[C@H](N)C[C@@H](F)C2)cc2nc(-c3cc4cccc5c4n3CCN5CCC(C)(C)O)n(Cc3cnn(C)c3)c12
IC50: 100 to 500 nM
